Measured values: ChEMBL document CHEMBL6087480, “In Search for Inhibitors of Human Aldo-Keto Reductase 1B10 (AKR1B10) as Novel Agents to Fight Cancer and Chemoresistance: Current State-of-the-Art and Prospects” (J Med Chem, 2025)

Biological target: Aldo-keto reductase family 1 member B1 (Homo sapiens, UniProt P15121)
Test: Inhibition of AKR1B1 (unknown origin)

- IC50: 1.6 µM
Compound: Cc1c2cc(O)c(=O)cc-2oc2cc(O)c(O)cc12
